Tests used:
[1] = tested on: HCT116 PTEN null cells; assay: cAMP-Glo assay; type: cell-based, human; conditions: 15 minutes incubation
Method: (§1) HCT116 parental cells or HCT116 PTEN null cells (reference cell lines) were seeded at a density of 15000 cells/well in 384-well white wall, clear bottom, and cell culture treated plates (BD Bioscience, Franklin Lakes, N.J., Cat#354660). Cells were cultured in the McCoy's 5a complete growth medium overnight. The next day cAMP-Glo assay was performed according to manufacturer's instruction (Promega, Cat# V1502). Briefly, cell culture medium was removed by flipping the plate. 7.5 μL of each compound (10 μM in induction buffer) (Cat#3565) (Corning Inc., NY) was added to each well by liquid handler robot (CyBio) for 15 minutes incubation before additions of lysis buffer, PKA kinase assay buffer, and substrate. Luminescence was measured using Tecan Salim II plate reader.
(§2) To screen endogenous receptors and their coupled signaling pathways, we first assembled a GPCR agonist focused library (Table 1). The library consists of 120 GPCR agonists covering over 150 known GPCRs, based on their known pharmacology including polypharmacology. For small molecule chemical agonists, the dose used was 10 micromolar. For peptide agonists, the dose used was 1 micromolar. For lipid agonists, the dose used was also 1 micromolar. For both peptides and lipids, these agonists were suspended in a solution containing 0.05% bovine […] to increase their stability. […]

[2] = tested on: HCT116 parental cells; assay: cAMP-Glo assay; type: cell-based, human; conditions: 15 minutes incubation
Method: as §1, §2

Calcitonin gene-related peptide (ACDTATCVTHRLAGLLSRSGGVVKNNFVPTNVGSKAF; Calcitonin gene-related peptide 1; UniProt P06881 83-119, looked up) [CGRP]
cAMP accumulation (normalized to forskolin-induced cAMP increase) [1]: detectable cAMP accumulation
cAMP accumulation (normalized to forskolin-induced cAMP increase) [2]: detectable cAMP accumulation

From US20130210057A1, “USE OF LABEL-FREE BIOSENSORS TO UNDERSTAND AND IDENTIFY TREATMENT FOR CANCER” (CORNING INCORPORATED, priority 2012, published 2013)
